Here are results for one molecule from article PMC7567794 (Scientific Reports, 2020).

Sequences of proteins named here, by UniProt entry; tags and fusion partners are left off. Residues count along the entry.
UniProt P13726, 33-251: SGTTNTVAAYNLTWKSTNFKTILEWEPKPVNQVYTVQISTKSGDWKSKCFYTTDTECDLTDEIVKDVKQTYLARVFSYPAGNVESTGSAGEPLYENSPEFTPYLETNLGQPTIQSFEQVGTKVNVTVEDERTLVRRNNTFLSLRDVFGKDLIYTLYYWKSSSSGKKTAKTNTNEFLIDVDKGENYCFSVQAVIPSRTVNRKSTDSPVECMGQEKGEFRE

The target of this test is T1, tissue factor (S33 to E251) (Homo sapiens, UniProt P13726).
T1 construct: tissue factor (TF), residues S33 to E251; the antigen of the antibody D3h44 in PDB 1JPS; The tag was removed with Ulp1; tag-free TF was used; Antigen residues named in the text (S202, K169, P194, I152) follow the numbering of PDB 1JPS, not that of the construct limits; also called TF; antigen; source: E. coli BL21 (DE3), purified (Ni-NTA, SEC); not shown: His6, N-terminal, cleaved; SUMO, …
The test can be described thus: SPR; Biacore 8K; TF immobilised on a CM5 chip by amine coupling (450-750 response units); Fab as analyte; single-cycle kinetics, association 120 s, dissociation 1800 s, no regeneration; PBS with 0.005% Tween-20; three measurements. To be noted: both partners purified.

B1: anti-tissue factor antibody D3h44 Fab, wild-type (Fab, V domains shown)
VH: EVQLVESGGGLVQPGGSLRLSCAASGFNIKEYYMHWVRQAPGKGLEWVGLIDPEQGNTIYDPKFQDRATISADNSKNTAYLQMNSLRAEDTAVYYCARDTAAYFDYWGQGTLVTVSS
VL: DIQMTQSPSSLSASVGDRVTITCRASRDIKSYLNWYQQKPGKAPKVLIYYATSLAEGVPSRFSGSGSGTDYTLTISSLQPEDFATYYCLQHGESPWTFGQGTKVEIK
notes: heavy chain of the D3h44 Fab; light chain of the D3h44 Fab; also called 1JPS WT; 1JPS Fab; source: ExpiCHO, purified (Ni-NTA, SEC)
For orientation: Kd means the equilibrium constant for the complex coming apart. What is called koff is a measure of how fast the partners let go of each other. Read a low koff as slow dissociation. In general, kon refers to the rate constant with which the complex forms. Read a high kon as fast association. Molecule B1 came in with a Kd of 0.045 nM, a dissociation rate constant (koff) of 6.2e-05 s⁻¹ and a kon of 1.4e+06 M⁻¹ s⁻¹.
